Data as given in patent EP4772506A1, “COMPOUND FOR REGULATING ACTIVITY OF MICRORNA-124” (Jiangsu Chia Tai Fenghai Pharmaceutical Co., Ltd., priority 2023, dated 2025).

System: miR124
Test: Effect of the compound on miR124 upregulation in PBMCs (qPCR, U6 as internal reference)
Assay type: cell-based, human
Details: miR-124 expression, 5 µM, 6 days, batches normalized

## FC(F)(F)Oc1ccc(Nc2ncc3c(N4CCOCC4)cc(Cl)cc3n2)cc1 [Compound 45]
  Average fold change compared to DMSO treatment, Average value: 8.29

## CN(C)CCN(C)c1cc(Cl)cc2nc(Nc3ccc(OC(F)(F)F)cc3)ncc12 [Compound 44]
  Average fold change compared to DMSO treatment, Average value: 4.89
